According to article PMC4734766, “Pentamidine Is Not a Permeant but a Nanomolar Inhibitor of the Trypanosoma brucei Aquaglyceroporin-2” (PLoS Pathogens, 2016):

Tested on: aqp2-null T. brucei expressing wild-type TbAQP2
Assay: alamarBlue EC50 assay, aqp2-null strain re-expressing wild-type GFP-TbAQP2
Details: Trypanosoma brucei

## N=C(N)c1ccc(OCCCCCOc2ccc(C(=N)N)cc2)cc1 [pentamidine]
  EC50: 0.65 nM
